Laboratory results as given in patent US4808409A, “Low cariogenic sweetening agents” (Board of Trustees, University of Illinois, priority 1984, dated 1989).

Tests used:
human taste panel = assay: Human taste panel magnitude estimation of sweetness intensity and pleasantness; conditions: for Sweetness relative to sucrose, molar basis: vs 0.27 molar sucrose
Description: Solutions were presented to the subjects in a randomized fashion and were sampled in duplicate. After tasting, each solution was expectorated, and the mouth was washed with distilled water.

S. mutans = assay: Cariogenicity: acid production by S. mutans from sweetener; assay type: cell-based
Method: In a first test, the ability of microbes to utilize this sweetener source as a nutrient and convert it to acidic by-products was determined.

male Swiss-Webster mice = conditions: mouse, in vivo, po
Method: Compounds were suspended in a minimum volume of 1% sodium carboxymethylcellulose, and were administered by oral intubation at the doses indicated in Table II.
^a Male SwissWebster mice (9 or 10 animals per dose).
^d Mortality = number of mice dying within 14 days/number of starting
^e Mortality = number of mice dying within 24 hours/number of startin

Q: What does the source list for `CC(C)=CCC[C@@](C)(O)[C@H]1CCC(C)=CC1=O` (relative stereo) [synthetic hernandulcin, 6-(1',5'-dimethyl-1'-hydroxyhex-4'-en-1'-yl)-3-methyl-2-cyclohexen-1-one]?
A: Sweetness intensity relative to the isolated natural product (human taste panel; synthetic racemic mixture vs natural hernandulcin): about one-half; Rate of acid production relative to sucrose, weight basis (S. mutans): one hundred-fold less than that attained from sucrose

Q: `CC(C)=CCC[C@@](C)(O)[C@H]1CCC(C)=CC1=O` (relative stereo) [Hernandulcin, 6-(1',5'-dimethyl-1'-hydroxyhex-4'-en-1'-yl)-3-methyl-2-cyclohexen-1-one] was tested. Which “Sweetness relative to sucrose, molar basis” value (human taste panel; natural hernandulcin) did it give?
A: The value was ~1,000 times.

Q: And the “Sweetness relative to sucrose, molar basis” value (human taste panel; natural hernandulcin, listed as hernandulcin)?
A: Its value is “about 1,000 times”.

Q: And the “Sweetness relative to sucrose, weight basis” value (human taste panel; natural hernandulcin, weight basis, vs 0.27 M sucrose)?
A: The value was “about 1,500 times”.

Q: And the “Estimated LD50” value (male Swiss-Webster mice)?
A: The value was > 2.0 g/kg.

Q: What about the “Mortality at 1.0 g/kg” value (male Swiss-Webster mice) of the same molecule?
A: The value was 0/10.

Q: What about the “Mortality at 2.0 g/kg (14 days)” value (male Swiss-Webster mice) of the same molecule?
A: Its value is 0/10.
